Source: patent US12435059B2 (dated 2025)

By UniProt entry, the sequences of proteins in these tests, tags left out. Residues count along the entry.
UniProt P62344, 2-524 limits assumed: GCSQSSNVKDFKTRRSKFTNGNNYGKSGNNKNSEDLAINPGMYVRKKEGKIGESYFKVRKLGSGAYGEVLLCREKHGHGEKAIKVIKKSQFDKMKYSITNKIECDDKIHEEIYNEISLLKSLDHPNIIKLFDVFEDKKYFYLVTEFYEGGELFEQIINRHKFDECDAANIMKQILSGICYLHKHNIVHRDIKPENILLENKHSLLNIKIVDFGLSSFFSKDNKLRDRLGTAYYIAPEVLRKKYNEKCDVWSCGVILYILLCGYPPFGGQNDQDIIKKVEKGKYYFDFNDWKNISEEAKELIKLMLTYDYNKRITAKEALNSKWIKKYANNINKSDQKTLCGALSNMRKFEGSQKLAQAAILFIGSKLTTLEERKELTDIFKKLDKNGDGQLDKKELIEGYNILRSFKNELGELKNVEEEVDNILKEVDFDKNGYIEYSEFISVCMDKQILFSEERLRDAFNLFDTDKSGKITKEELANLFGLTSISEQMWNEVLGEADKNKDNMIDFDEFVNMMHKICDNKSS

Tests used:
[1] = biological target: 468 kinases (Plasmodium falciparum, UniProt P61075); assay: biochemical; conditions: read-out: % Inhibition @ 100 nM
[2] = biological target: 468 kinases (Plasmodium falciparum, UniProt P62344); assay: biochemical; conditions: read-out: % Inhibition @ 100 nM

Compound: CCN(CC)CCNC(=O)c1c(C)[nH]c(/C=C2\C(=O)Nc3ccc(F)cc32)c1C [Sunitinib, (Z)—N-(2-(Diethylamino)ethyl)-5-((5-fluoro-2-oxoindolin-3-ylidene)methyl)-2,4-dimethyl-1H-pyrrole-3-carboxamide, reference compound]
- inhibition at 0.1 µM [1]: 43%
- inhibition at 0.1 µM [2]: 8%
